pIC50: −log10 of the molar value.
Biological target: Amine oxidase [flavin-containing] A (Homo sapiens, UniProt P21397)
Assay: Inhibition of MAO-A in human placental mitochondria
Design: species or system Placenta

Amino acid sequences for entries named in this document (tags omitted).
UniProt P21397, whole entry: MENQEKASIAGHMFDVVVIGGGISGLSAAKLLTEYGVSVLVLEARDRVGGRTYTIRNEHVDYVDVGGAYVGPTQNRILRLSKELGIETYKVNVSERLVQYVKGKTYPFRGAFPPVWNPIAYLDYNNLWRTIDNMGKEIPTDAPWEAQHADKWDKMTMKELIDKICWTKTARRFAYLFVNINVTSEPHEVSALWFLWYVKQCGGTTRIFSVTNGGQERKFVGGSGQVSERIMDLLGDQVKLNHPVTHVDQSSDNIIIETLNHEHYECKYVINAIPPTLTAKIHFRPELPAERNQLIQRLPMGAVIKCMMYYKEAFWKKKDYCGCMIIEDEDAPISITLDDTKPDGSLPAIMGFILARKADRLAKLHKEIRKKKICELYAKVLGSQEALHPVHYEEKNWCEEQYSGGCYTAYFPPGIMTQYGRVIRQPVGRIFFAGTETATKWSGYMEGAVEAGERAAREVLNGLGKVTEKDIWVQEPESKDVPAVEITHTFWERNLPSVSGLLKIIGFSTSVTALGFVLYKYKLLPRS

pIC50: < 6.00
Structure (SMILES): COc1ccc2c(c1)-c1nnc(-c3cccc(C(F)(F)F)c3)cc1C2=O
